# Values of other authors in PMC7923178, “Binding of Amyloid β(1–42)-Calmodulin Complexes to Plasma Membrane Lipid Rafts in Cerebellar Granule Neurons Alters Resting Cytosolic Calcium Homeostasis” (International Journal of Molecular Sciences, 2021).
# Amino acid sequences for entries named in this document (tags omitted). Residues count along the entry.
# UniProt P49840, 2-483: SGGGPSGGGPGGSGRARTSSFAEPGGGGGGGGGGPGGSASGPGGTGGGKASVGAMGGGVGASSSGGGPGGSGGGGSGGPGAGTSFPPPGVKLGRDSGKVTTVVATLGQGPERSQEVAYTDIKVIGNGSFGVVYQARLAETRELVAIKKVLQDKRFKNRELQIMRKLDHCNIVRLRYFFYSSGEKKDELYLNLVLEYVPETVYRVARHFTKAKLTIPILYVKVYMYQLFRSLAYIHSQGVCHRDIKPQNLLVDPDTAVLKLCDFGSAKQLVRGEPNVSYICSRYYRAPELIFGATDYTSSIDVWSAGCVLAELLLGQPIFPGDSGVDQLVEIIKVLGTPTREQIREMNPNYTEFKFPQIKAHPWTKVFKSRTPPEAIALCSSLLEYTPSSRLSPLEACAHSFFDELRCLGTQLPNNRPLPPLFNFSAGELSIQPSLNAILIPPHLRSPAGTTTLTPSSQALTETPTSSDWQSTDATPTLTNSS
# Molecular target: GSK3alpha (UniProt P49840)
substance,measurement,value
amyloid beta (from UniProt P05067),Kd,1 nM
